Where two headings read alike, the source gives them in different places.
Key:
Primary human AEC2s = assay: AEC2 proliferation assay (Ki67 high content imaging); type: cell-based; details: Table 5
Human DPP4 = Human DPP4 (Homo sapiens (Human), UniProt P27487); assay: DPP4 activity assay (Sigma-Aldrich MAK088 kit)

Protein sequences, listed by entry. Tags and fused reporters are not part of them.
UniProt P27487, whole entry: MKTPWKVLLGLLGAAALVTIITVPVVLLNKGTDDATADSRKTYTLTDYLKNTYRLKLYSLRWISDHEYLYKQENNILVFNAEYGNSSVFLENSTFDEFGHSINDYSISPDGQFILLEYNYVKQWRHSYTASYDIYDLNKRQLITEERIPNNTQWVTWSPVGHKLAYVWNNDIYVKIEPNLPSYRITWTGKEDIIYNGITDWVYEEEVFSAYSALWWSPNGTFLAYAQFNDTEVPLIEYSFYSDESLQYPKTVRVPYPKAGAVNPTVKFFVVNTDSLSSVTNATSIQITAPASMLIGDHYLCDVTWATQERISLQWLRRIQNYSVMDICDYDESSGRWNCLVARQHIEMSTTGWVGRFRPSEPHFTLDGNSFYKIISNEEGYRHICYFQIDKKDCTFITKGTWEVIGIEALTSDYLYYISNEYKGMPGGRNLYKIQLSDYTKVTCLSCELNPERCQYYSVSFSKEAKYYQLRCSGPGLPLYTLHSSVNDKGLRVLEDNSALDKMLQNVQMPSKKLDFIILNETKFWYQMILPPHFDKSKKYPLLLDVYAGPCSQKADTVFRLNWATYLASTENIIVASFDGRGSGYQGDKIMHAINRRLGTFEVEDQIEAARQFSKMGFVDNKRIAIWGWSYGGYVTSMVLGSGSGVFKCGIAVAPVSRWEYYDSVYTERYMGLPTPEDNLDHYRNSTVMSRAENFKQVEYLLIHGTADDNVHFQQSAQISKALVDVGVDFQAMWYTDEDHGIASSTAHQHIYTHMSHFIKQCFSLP

| Compound | EC50 (Primary human AEC2s) | IC50 (Human DPP4; read-out: DPPIV IC50, Table 4) | IC50 (Human DPP4; read-out: Observed DPP4 IC50, Table 5) |
| --- | --- | --- | --- |
| CC#CCn1c(N2CCC[C@@H](N)C2)nc2c1c(=O)n(Cc1nc(C)c3ccccc3n1)c(=O)n2C [Cpd 5, (R)-8-(3-aminopiperidin-1-yl)-7-(but-2-yn-1-yl)-3-methyl-1-((4-methylquinazolin-2-yl)methyl)-3,7-dihydro-1H-purine-2,6-dione] | 0.26 µM |  |  |
| Cc1cc2ncc(C(=O)NCC(C)(C)NCC(=O)N3CCC[C@H]3C#N)cn2n1 [Cpd 12, (S)-N-(2-((2-(2-cyanopyrrolidin-1-yl)-2-oxoethyl)amino)-2-methylpropyl)-2-methylpyrazolo[1,5-a]pyrimidine-6-carboxamide] |  | 0.0114 µM | 0.0114 µM |
| CC(C)(C)OC[C@@H]1C(=O)NCCN1C(=O)C[C@H](N)Cc1cc(F)c(F)cc1F [Cpd 13, (R)-4-((R)-3-amino-4-(2,4,5-trifluorophenyl)butanoyl)-3-(tert-butoxymethyl)piperazin-2-one] | 0.015 µM |  |  |
